Values of other authors, collected in patent US6444477B1, “Assay method for detecting 5-HT2B antagonists” (Pharmagene Laboratories Limited, priority 2000, dated 2002).
Like-named read-outs stand apart in the source and are kept apart here.

The chains behind the UniProt entries cited, without tags or fusion partners. Residues count along the entry.
UniProt P28335, 33-458: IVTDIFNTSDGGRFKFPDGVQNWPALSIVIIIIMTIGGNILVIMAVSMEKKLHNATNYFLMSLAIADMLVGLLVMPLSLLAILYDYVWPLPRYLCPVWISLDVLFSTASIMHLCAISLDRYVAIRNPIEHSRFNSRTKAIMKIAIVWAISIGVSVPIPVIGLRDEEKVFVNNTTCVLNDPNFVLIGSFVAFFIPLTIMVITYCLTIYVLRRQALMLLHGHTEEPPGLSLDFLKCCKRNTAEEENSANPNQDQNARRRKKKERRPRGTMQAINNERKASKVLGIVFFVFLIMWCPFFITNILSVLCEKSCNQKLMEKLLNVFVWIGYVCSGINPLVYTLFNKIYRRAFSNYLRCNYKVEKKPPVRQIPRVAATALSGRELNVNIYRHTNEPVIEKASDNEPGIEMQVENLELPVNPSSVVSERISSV

Target: human 5-HT2C receptor (Homo sapiens, UniProt P28335)
Details: cited from earlier work

Compound	affinity from binding data (#) at human 5-HT2C receptor	affinity from binding data (#) at human 5-HT2C receptor (marked #)
COC(=O)[C@H]1[C@H]2C[C@H]3c4[nH]c5ccccc5c4CCN3C[C@H]2CC[C@@H]1O [Rauwolscine]	5.8^#	
Cn1ccc2cc3c(cc21)CCN3C(=O)Nc1cccnc1 [SB 206553, 5-methyl-1-(3-pyridylcarbamoyl)-1,2,3,5-tetrahydropyrrolo [2,3-f]indole]		7.9-9.0^#
